# Source: PubChem BioAssay AID1347120 (National Center for Advancing Translational Sciences (NCATS), 2019)
# Only a part is listed here, and it is no random draw. Results filed as inconclusive are left out. The source made the active and inactive calls. Calls come from the whole dose curve; as a rule, active = well fitted activation curve with a large enough effect; inconclusive = small, poorly fitted or top-dose-only effect; inactive = no such curve, though single readings can be large or run the other way.
# Test: qHTS for Suppressors of FUS Proteinopathy: Primary screen using FUS-linked yeast assay;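 note: plate controls were DMSO vehicle for no effect and reference control for full effect; nearly all actives have a fitted effect of over 55% in size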
# Conditions: S. cerevisiae FUS-expressing, OD600, 24 h; at 76.6 µM (top of the series)
# Text: Several widespread neurodegenerative diseases, including Alzheimer disease, Huntington disease, Frontotemporal Lobar Degeneration (FTLD) and Amyotrophic Lateral Sclerosis (ALS), share a common pathological feature, namely accumulation of specific protein aggregates in diseased tissue. These diseases which is associated with protein misfolding (proteinopathies) have become increasingly problematic as the population ages and life expectancies are extended. Most proteinopathies are currently incurable, a situation confounded by the fact that the basis of neurodegeneration is generally poorly understood. There exists urgent and significant need to find therapeutics that can inhibit the toxicity associated with protein aggregation. A novel approach to understand the underlying mechanisms of neurodegenerative diseases has recently emerged in which the disease conditions are modeled in the yeast (Saccharomyces cerevisiae), a tractable eukaryotic organism with conserved protein quality control mechanisms. Yeast offers quick and reliable genetic manipulations and can be easily tailored to high-throughput screening (HTS).
# For this project, a yeast model of the FUS proteinopathies (a spectrum of neurodegenerative diseases that include ALS and a subtype of FTLD) was generated and employed. The cytoplasmic accumulation of the DNA/RNA-binding protein FUS (also known as TLS) is causative to both familial and sporadic forms of ALS and FTLD. This yeast model recapitulates neuronal pathology by showing severe cytotoxicity associated with cytoplasmic accumulation of FUS aggregates and a specific interaction between FUS and TDP-43, another ALS-associated protein. […] Specifically, the cellular accumulation of misfolded FUS that disrupts RNA homeostasis in both yeast and higher eukaryotes. This model was validated to be suitable for quantitative HTS (qHTS) use for finding genetic or chemical factors that restore growth. […] Identified compounds that inhibits FUS-yeast toxicity is flagged, re-acquired, and validated for further investigation and optimization.
# NIH Chemical Genomics Center [NCGC]
# NIH Molecular Libraries Probe Production Centers Network [MLPCN]
# Assay Submitter (PI): Frank Shewmaker PhD, Uniformed Services University of the Health Sciences
# Compound CP55940 was used as the positive control. Column 1 was treated with CP55940 titration from 92uM (final concentration, 1:2 dilution), while Column 2 was treated with top dose 92uM. Columns 3 and 4 were treated with DMSO only as negative control to assess background and noise signal.
# Four hundred fifty microliter of cultured yeast (in 20mL rich medium) provided by Dr. Shewmaker lab was incubated at 30C at 99% humidity for 3hr. The culture was then spun down at 4000rpm for 5min and the cell pellet was resuspended in 2mL of Sdmin Media + ALU(330) + 2.5% Raffinose. One hundred microliter of the suspension was added to 900uL of water and OD of the solution was obtained. Twenty mL of responding medium (provided by Shewmaker lab) + 2.5% raffinose was added to ensure cell density of 0.1; the solution was incubated overnight. Working cell solution (FUS-yeast in Sdmi + Sdmi + 1X ALU + 2% galactose media) was prepared (final OD at 0.005) and 3uL was dispensed in a 1536-well Aurora high based clear bottom assay plates. Controls and library compounds (at various final concentrations from 40uM to 0.32uM) were added using a 1536-well pin array using the Kalypsys pin-tool. The plates were then incubated for 24hrs in a cell-culture incubator (30C; 99% humidity). Absorbance at 600nm was then read using the PerkinElmer ViewLux plate reader.
row,SMILES,growth rescue (activation)
1,CCCCn1nnnc1C(c1cccc(OC)c1OC)N1CCC(n2c(=O)[nH]c3ccccc32)CC1 (centres undefined),inactive: 10.9%
2,CCc1cc(C(=O)NCC2(N3CCCCC3)CCCCC2)sc1C,inactive: 30.4%
3,O=C(O)c1cccc(Nc2c([N+](=O)[O-])cc([N+](=O)[O-])cc2[N+](=O)[O-])c1,inactive: 14.2%
4,N/C(=N\O)c1c(N)no[n+]1[O-],inactive: -27.4%
5,CCOC(=O)N1CCC(Nc2ccc(C)cc2)CC1,inactive: 6.03%
6,COc1ccc(C(=O)NCC2(N3CCOCC3)CCCCC2)cc1OC,inactive: -17.2%
7,NC(=O)C1(Nc2ccccc2)CCN(Cc2ccccc2)CC1,inactive: -17.2%
8,O=C(NCC1(N2CCOCC2)CCCCC1)c1cc(Br)ccc1Cl,inactive: -21.7%
9,CCCCn1nnnc1C(c1ccccc1)N1CCC(n2c(=O)[nH]c3ccccc32)CC1 (centres undefined),inactive: 20.8%
10,COc1cc(C(=O)NCC2(N3CCOCC3)CCCCC2)cc(OC)c1C,inactive: -7.02%
11,c1ccc(CN2CCC(Nc3ccccc3)CC2)cc1,inactive: 16.4%
12,O=C(NCC1(N2CCOCC2)CCCCC1)c1ccccc1,inactive: -21.6%
13,CCCN1CCC(Nc2cc(OC)cc(OC)c2)CC1,inactive: 31.2%
14,O=c1[nH]c2ccccc2n1C1CCN(C(c2ccccc2)c2nnnn2C2CCCC2)CC1 (centres undefined),inactive: 9.07%
15,CN(C)C1(CNC(=O)c2cccc(C#N)c2)CCCCC1,inactive: 10.4%
16,CCOC(=O)C(CC)C1=NC(C)(C)Cc2ccccc21.O=[N+]([O-])c1cc([N+](=O)[O-])c(O)c([N+](=O)[O-])c1 (centres undefined),inactive: -22.7%
17,O=C(NCC1(N2CCOCC2)CCCCC1)c1ccc([N+](=O)[O-])cc1,inactive: -16.5%
18,N#Cc1ccc(C(=O)NCC2(N3CCCCC3)CCCCC2)cc1,inactive: 24.2%
19,O=C(NCC1(N2CCOCC2)CCCCC1)c1ccccc1[N+](=O)[O-],inactive: -30.2%
20,CC(C)(C)c1ccc(C(=O)NCC2(N3CCOCC3)CCCCC2)cc1,inactive: 0.849%
21,O=C(NCC1(N2CCCCC2)CCCCC1)c1ccco1,inactive: 10.6%
22,CN(C)c1ccc(C(=O)NCC2(N3CCCCC3)CCCCC2)cc1,inactive: 7.69%
23,Cc1ccccc1C(=O)NCC1(N(C)C)CCCCC1,inactive: 1.04%
24,Cc1ccccc1NC1(C#N)CCN(Cc2ccccc2)CC1,inactive: 15.9%
25,CCN1CCC(Nc2cccc(F)c2)CC1,inactive: 9.91%
26,COc1ccc(C(c2nnnn2C2CCCCC2)N2CCC(n3c(=O)[nH]c4ccccc43)CC2)cc1 (centres undefined),inactive: -19%
27,Cc1ccc(NC2(C#N)CCN(Cc3ccccc3)CC2)cc1,inactive: -22.2%

row,SMILES,growth rescue (activation)
1,Cc1ccc(C(=O)NCC2(N3CCCCC3)CCCCC2)o1,inactive: 3.39%
2,Cc1ccc(Nc2c([N+](=O)[O-])cc([N+](=O)[O-])cc2[N+](=O)[O-])cc1,inactive: -19.8%
3,Fc1ccccc1NC1CCN(Cc2ccccc2)CC1,inactive: 1.11%
4,O=c1[nH]c2ccccc2n1C1CCN(C(c2ccnc3ccccc23)c2nnnn2C2CCCCC2)CC1 (centres undefined),inactive: -17.1%
5,COc1cc(OC)cc(C(=O)NCC2(N3CCCCC3)CCCCC2)c1,inactive: -0.167%
6,CC(=O)N(c1ccccc1)C1CCNCC1,inactive: -17.9%
7,CN(C)C1(CNC(=O)c2ccc(C(C)(C)C)cc2)CCCCC1,inactive: 3.2%
8,CCC(c1nnnn1C1CCCCC1)N1CCC(n2c(=O)[nH]c3ccccc32)CC1 (centres undefined),inactive: 15.5%
9,CN1CCC(Nc2ccc(Cl)cc2)CC1,inactive: -1.43%
10,CCC(CO)(C(=O)OC1CN2CCC1CC2)c1ccccc1 (centres undefined),inactive: -36.8%
11,COc1cc(OC)cc(C(=O)NCC2(N3CCOCC3)CCCCC2)c1,inactive: 0.0571%
12,COc1cccc(C(c2nnnn2C2CCCC2)N2CCC(n3c(=O)[nH]c4ccccc43)CC2)c1OC (centres undefined),inactive: 38.2%
13,COc1cc(C(=O)NCC2(N3CCOCC3)CCCCC2)cc(OC)c1OC,inactive: -11.1%
14,COc1cccc(C(=O)N(c2cc(C)cc(C)c2)C2CCN(C(=O)OC(C)(C)C)CC2)c1,inactive: 26.1%
15,CCCOc1ccc(C(=O)NCC2(N(C)C)CCCCC2)cc1,inactive: 23.3%
16,CC(C)(C)OC(=O)N1CCC(Nc2ccccc2)CC1,inactive: 27.5%
17,O=C(O)C1(Nc2ccccc2)CCN(Cc2ccccc2)CC1,inactive: -28.1%
18,NN(c1ccccc1)C1CCN(CCc2ccccc2)CC1,inactive: -3.79%
19,CN1CCC(Nc2ccc(F)c(Cl)c2)CC1,inactive: 6.79%
20,CCOC(=O)N1CCC(Nc2ccc(OC)cc2)CC1,inactive: -32.9%
21,O=c1[nH]c2ccccc2n1C1CCN(C(c2cc3ccccc3o2)c2nnnn2C2CCCCC2)CC1 (centres undefined),inactive: 24.6%
22,N#CC1(Nc2ccccc2)CCN(Cc2ccccc2)CC1,inactive: 0.194%
23,O=C1C(O)=C([N+](=O)[O-])C(=O)C(O)=C1[N+](=O)[O-],inactive: -15%
24,O=C(NCC1(N2CCOCC2)CCCCC1)c1cc2ccccc2o1,inactive: 10.4%
25,O=c1[nH]c2ccccc2n1C1CCN(C(c2ccccc2OC(F)(F)F)c2nnnn2C2CCCCC2)CC1 (centres undefined),inactive: 13.2%
26,O=C(NCC1(N2CCCCC2)CCCCC1)c1ccc(Cl)nc1,inactive: 12.7%
27,CSc1ccccc1C(=O)NCC1(N2CCCCC2)CCCCC1,inactive: 10.4%
